Test results: ChEMBL document CHEMBL3871280

Columns and labels:
[1] = Cytotoxicity against human BEAS2B cells assessed as reduction in cell survival; type: toxicity, cell-based; settings: beas-2b
[2] = Cytotoxicity against human A549 cells assessed as reduction in cell survival; type: toxicity, cell-based

**Q.** With `Cl.N=C(N)N/N=C/c1ccc(-c2ccc(/C=N/Nc3ccc(F)cc3)cc2)cc1` as the molecule, how does the IC50 [1] read?
**A.** Its IC50 is 6 µg/mL.

**Q.** And the IC50 [2]?
**A.** The IC50 was 4.4 µg/mL.
